We go through one molecule from PubChem BioAssay AID602274 (Sanford-Burnham Center for Chemical Genomics, 2012).

Each structure is given as a SMILES string. Only a part is listed here, and it is no random draw. The source made the active and inactive calls. Rule as the data show it: active = survival enhancement above about 18%; inactive = the rest.

A short description of the experiment: enhancers of single-cell hiPSC survival, primary screen, ATPlite luminescence (AID 602274).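 Also: cells exposed to compounds for 16 hours before the ATP read.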 Particulars: at 20 µM, hits give high values, 100% = ROCK inhibitor wells, 0% = DMSO.
On to `CC1CCN(C(=O)Oc2c(Cl)cc(Cl)c3cccnc23)CC1`, for which the survival enhancement was inactive: 10.6%.
